Results on 29 compounds are retold here after patent publication US9440982B2 (Eolas Therapeutics, Inc., priority 2012, dated 2016).

Amino acid sequences for entries named in this document (tags omitted).
UniProt O43614, whole entry: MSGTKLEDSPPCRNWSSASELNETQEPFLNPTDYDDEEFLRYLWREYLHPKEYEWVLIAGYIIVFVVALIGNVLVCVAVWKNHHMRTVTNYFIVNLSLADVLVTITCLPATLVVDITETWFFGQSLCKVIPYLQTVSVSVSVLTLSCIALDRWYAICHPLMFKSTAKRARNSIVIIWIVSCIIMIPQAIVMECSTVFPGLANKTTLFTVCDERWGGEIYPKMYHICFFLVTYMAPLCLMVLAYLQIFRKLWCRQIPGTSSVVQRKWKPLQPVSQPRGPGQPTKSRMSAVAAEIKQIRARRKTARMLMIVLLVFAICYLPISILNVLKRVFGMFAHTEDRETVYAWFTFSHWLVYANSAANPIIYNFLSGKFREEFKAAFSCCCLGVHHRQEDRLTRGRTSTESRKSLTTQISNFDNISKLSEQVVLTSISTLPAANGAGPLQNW

Some results are limits rather than exact numbers.

For the first test, the target named is T1, OX2 (Homo sapiens, UniProt O43614).
T1 construct: expressed in transfected cells; host or cells: CHO (CHO-OX2, kept under selection antibiotic)
Briefly: Orexin receptor cell-based functional assay, [Ca2+]i by FLIPR, CHO-OX2 cells. Conditions: CHO-OX2 cells, [Ca2+]i by FLIPR, antagonist dose-range 0.1 nM-10 μM, EC90 of OXA; read-out: OX2.
With `C[C@@H]1CCCN(C(=O)c2cc(F)c(F)cc2-c2ncccn2)[C@@H]1CNc1ccc(C(F)(F)F)cn1` [Example A242, (4,5-Difluoro-2-(pyrimidin-2-yl)phenyl)((2S,3R)-3-methyl-2-(((5-(trifluoromethyl)pyridin-2-yl)amino)methyl)piperidin-1-yl)methanone], the IC50 is over 5 µM.
Consider `Cc1ccc(-n2cc(C)cn2)c(C(=O)N2CCC[C@@H](C)[C@H]2CNc2ccc(C(F)(F)F)cn2)c1` [Example A107, ((2S,3R)-3-Methyl-2-(((5-(trifluoromethyl)pyridin-2-yl)amino)methyl)piperidin-1-yl)(5-methyl-2-(4-methyl-1H-pyrazol-1-yl)phenyl)methanone], for which the IC50 was found to be 0.14 µM.
The same measure, in the same setting: the value for `Cc1ccc(-c2ccccn2)c(C(=O)N2CCC[C@@H](C)[C@H]2CNc2ccc(C(F)(F)F)cn2)c1` [Example A9, ((2S,3R)-3-Methyl-2-(((5-(trifluoromethyl)pyridin-2-yl)amino)methyl)piperidin-1-yl)(5-methyl-2-(pyridin-2-yl)phenyl)methanone] was 3.7 µM; that for `Cc1ccc(-n2nccn2)c(C(=O)N2CCC[C@@H](C)[C@H]2CNc2ncc(C#N)cn2)n1` [Example A190, 2-((((2S,3R)-3-Methyl-1-(6-methyl-3-(2H-1,2,3-triazol-2-yl)picolinoyl)piperidin-2-yl)methyl)amino)pyrimidine-5-carbonitrile] was over 5 µM.
Still for that read-out and setting: the value for `Cc1cccc(C(=O)N2CCC[C@@H](C)[C@H]2CNc2ncc(Cl)cn2)c1-n1nccn1` [Example A268, ((2S,3R)-2-(((5-Chloropyrimidin-2-yl)amino)methyl)-3-methylpiperidin-1-yl)(3-methyl-2-(2H-1,2,3-triazol-2-yl)phenyl)methanone] was 1.7 µM.
The same measure, in the same setting: next, `Cc1ccc(-c2ncccn2)c(C(=O)N2CCC[C@@H](C)[C@H]2CNc2nnc(C(F)(F)F)s2)n1` [Example A187, ((2S,3R)-3-Methyl-2-(((5-(trifluoromethyl)-1,3,4-thiadiazol-2-yl)amino)methyl)piperidin-1-yl)(6-methyl-3-(pyrimidin-2-yl)pyridin-2-yl)methanone]: over 5 µM.
In the case of `C[C@@H]1CCCN(C(=O)c2nccc3ccccc23)[C@@H]1CNc1ncc(Cl)cn1` [Example A225, ((2S,3R)-2-(((5-Chloropyrimidin-2-yl)amino)methyl)-3-methylpiperidin-1-yl)(isoquinolin-1-yl)methanone], the IC50 is over 5 µM.
Still for that read-out and setting: the value for `C[C@@H]1CCCN(C(=O)c2c(-n3nccn3)ccc(F)c2F)[C@@H]1CNc1ncc(C(F)(F)F)cn1` [Example A337, (2,3-Difluoro-6-(2H-1,2,3-triazol-2-yl)phenyl)((2S,3R)-3-methyl-2-(((5-(trifluoromethyl)pyrimidin-2-yl)amino)methyl)piperidin-1-yl)methanone] was over 5 µM; that for `CCn1cc(-c2ccc(C)cc2C(=O)N2CCC[C@@H](C)[C@H]2CNc2ccc(C(F)(F)F)cn2)cn1` [Example A110, (2-(1-Ethyl-1H-pyrazol-4-yl)-5-methylphenyl)((2S,3R)-3-methyl-2-(((5-(trifluoromethyl)pyridin-2-yl)amino)methyl)piperidin-1-yl)methanone] was 0.69 µM.
The same measure, in the same setting: the value for `Cc1ccc(-n2ncc(C)n2)c(C(=O)N2CCC[C@@H](C)[C@H]2CNc2nc3cc(F)ccc3o2)c1` [Example A141, ((2S,3R)-2-(((5-Fluorobenzo[d]oxazol-2-yl)amino)methyl)-3-methylpiperidin-1-yl)(5-methyl-2-(4-methyl-2H-1,2,3-triazol-2-yl)phenyl)methanone] was 0.086 µM; that for `Cc1ccc(-c2ccccn2)c(C(=O)N2CCC[C@@H](C)[C@H]2CNc2ccc(Cl)cn2)n1` [Example A169, ((2S,3R)-2-(((5-Chloropyridin-2-yl)amino)methyl)-3-methylpiperidin-1-yl)(6′-methyl-[2,3′-bipyridin]-2′-yl)methanone] was over 5 µM.
Still for that read-out and setting: the value for `C[C@@H]1CCCN(C(=O)c2cccc(F)c2-c2ncccn2)[C@@H]1CNc1ncc(Cl)cn1` [Example A231, (3-Fluoro-2-(pyrimidin-2-yl)phenyl)((2S,3R)-3-methyl-2-(((5-chloropyrimidin-2-yl)amino)methyl)piperidin-1-yl)methanone] was over 5 µM.
For `Cc1ccc(NC[C@@H]2[C@H](C)CCCN2C(=O)c2cc(C)ccc2-c2ncccn2)nc1` [Example A143, ((2S,3R)-3-Methyl-2-(((5-methylpyridin-2-yl)amino)methyl)piperidin-1-yl)(5-methyl-2-(pyrimidin-2-yl)phenyl)methanone], the IC50 was over 5 µM.
Take `Cc1ccc(-c2ccnn2C)c(C(=O)N2CCC[C@@H](C)[C@H]2CNc2ccc(F)cn2)c1` [Example A61, ((2S,3R)-2-(((5-Fluoropyridin-2-yl)amino)methyl)-3-methylpiperidin-1-yl)(5-methyl-2-(1-methyl-1H-pyrazol-5-yl)phenyl)methanone]: the IC50 is over 5 µM.
Same read-out and setting: the value for `Cc1ccc(-n2ncnc2C)c(C(=O)N2CCC[C@@H](C)[C@H]2CNc2ccc(C(F)(F)F)cn2)c1` [Example A16, ((2S,3R)-3-Methyl-2-(((5-(trifluoromethyl)pyridin-2-yl)amino)methyl)piperidin-1-yl)(5-methyl-2-(5-methyl-1H-1,2,4-triazol-1-yl)phenyl)methanone] was over 5 µM; that for `Cc1ccc(-c2cnn(C)c2)c(C(=O)N2CCC[C@@H](C)[C@H]2CNc2nc3ccccc3o2)c1` [Example A2, ((2S,3R)-2-((Benzo[d]oxazol-2-ylamino)methyl)-3-methylpiperidin-1-yl)(5-methyl-2-(1-methyl-1H-pyrazol-4-yl)phenyl)methanone] was over 4 µM; that for `Cc1ccc(-n2nccn2)c(C(=O)N2CCC[C@@H](C)[C@H]2CNc2ncc(C(F)(F)F)cn2)c1` [Example A149, ((2S,3R)-3-Methyl-2-(((5-(trifluoromethyl)pyrimidin-2-yl)amino)methyl)piperidin-1-yl)(5-methyl-2-(2H-1,2,3-triazol-2-yl)phenyl)methanone] was over 5 µM.
Turning to `Cc1ccc(-c2ccccn2)c(C(=O)N2CCC[C@@H](C)[C@H]2CNc2ccc(F)cn2)c1` [Example A58, ((2S,3R)-2-(((5-Fluoropyridin-2-yl)amino)methyl)-3-methylpiperidin-1-yl)(5-methyl-2-(pyridin-2-yl)phenyl)methanone], the IC50 is 2.4 µM.
On the same count and under the same terms, next, `Cc1ccc(NC[C@@H]2[C@H](C)CCCN2C(=O)c2cc(C)ccc2-c2cnn(C)c2)nc1` [Example A49, ((2S,3R)-3-Methyl-2-(((5-methylpyridin-2-yl)amino)methyl)piperidin-1-yl)(5-methyl-2-(1-methyl-1H-pyrazol-4-yl)phenyl)methanone]: over 5 µM.
The same measure, in the same setting: next, `Cc1ccc(-n2ncc(C)n2)c(C(=O)N2CCC[C@@H](C)[C@H]2CNc2ccc(F)cn2)c1` [Example A142, ((2S,3R)-2-(((5-Fluoropyridin-2-yl)amino)methyl)-3-methylpiperidin-1-yl)(5-methyl-2-(4-methyl-2H-1,2,3-triazol-2-yl)phenyl)methanone]: over 5 µM; `C[C@@H]1CCCN(C(=O)c2cc(F)c(F)cc2-n2nccn2)[C@@H]1CNc1ccc(C(F)(F)F)cn1` [Example A249, (4,5-Difluoro-2-(2H-1,2,3-triazol-2-yl)phenyl)((2S,3R)-3-methyl-2-(((5-(trifluoromethyl)pyridin-2-yl)amino)methyl)piperidin-1-yl)methanone]: over 5 µM; `Cc1ccc(-n2nccn2)c(C(=O)N2CCC[C@@H](C)[C@H]2CNc2ncccc2C(F)(F)F)c1` [Example A88, ((2S,3R)-3-Methyl-2-(((3-(trifluoromethyl)pyridin-2-yl)amino)methyl)piperidin-1-yl)(5-methyl-2-(2H-1,2,3-triazol-2-yl)phenyl)methanone]: 1.8 µM.

Still in this test, the particulars now being: Table 2; CHO-OX2 cells, EC90 of OXA; read-out: IC50 Bioactivity OX2.
As for `O=C(NCC1CCC(NCc2ccccc2)CN1C(=O)c1ccccc1-c1ccccc1)c1cccc2cccnc12` (racemic) [Example 40, N-((5-(Benzylamino)-1-(biphenylcarbonyl)piperidin-2-yl)methyl)quinoline-8-carboxamide], the IC50 came out at 1.5 µM.
Still for that read-out and setting: the value for `CNC1CCC(CNC(=O)c2cccc3cccnc23)N(C(=O)c2ccccc2-c2ccccc2)C1` (racemic) [Example 49, N-((1-(Biphenylcarbonyl)-5-(methylamino)piperidin-2-yl)methyl)quinoline-8-carboxamide] was 0.6 µM.
Still for that read-out and setting: next, `Cc1nc(C(=O)N2CCC[C@@H](C(C)C)[C@H]2CNc2nc3ccccc3o2)c(-c2ccc(F)cc2)s1` (racemic) [Example 84, rac-cis-((2S,3S)-2-((Benzo[d]oxazol-2-ylamino)methyl)-3-isopropylpiperidin-1-yl)(5-(4-fluorophenyl)-2-methylthiazol-4-yl)methanone]: over 10 µM; `CCc1cnc(OC[C@@H]2[C@H](C)CCCN2C(=O)c2nc(C)sc2-c2ccc(F)cc2)nc1` (racemic) [Example 81, rac-cis-(2-(((5-Ethylpyrimidin-2-yl)oxy)methyl)-3-methylpiperidin-1-yl)(5-(4-fluorophenyl)-2-methylthiazol-4-yl)methanone]: over 10 µM.
In the case of `Cc1nc(C(=O)N2CC(F)CCC2CNC(=O)c2cccc3cccnc23)c(-c2ccccc2)s1` (racemic) [Example 1, N-((5-Fluoro-1-(2-methyl-5-phenylthiazole-4-carbonyl)piperidin-2-yl)methyl)quinoline-8-carboxamide], the IC50 stood at 0.008 µM.
Consider `Cc1nc(C(=O)N2CCC[C@@H](C)[C@H]2CNc2ncccc2C(F)(F)F)c(-c2ccc(F)cc2)s1` (racemic) [Example 22, rac-cis-(5-(4-Fluorophenyl)-2-methylthiazol-4-yl)(3-methyl-2-(((3-(trifluoromethyl)pyridin-2-yl)amino)methyl)piperidin-1-yl)methanone], for which the IC50 was over 10 µM.
As for `C[C@@H]1CCCN(C(=O)c2ccnn2-c2ccccc2)[C@@H]1CNc1ccc(C(F)(F)F)cn1` (racemic) [Example 119, rac-cis-(3-Methyl-2-(((5-(trifluoromethyl)pyridin-2-yl)amino)methyl)piperidin-1-yl)(1-phenyl-1H-pyrazol-5-yl)methanone], the IC50 was over 10 µM.
